# Hit rate of the full screen: of about 140,000 compounds, about 240 (0.17%) were called active. All entries are inconclusive by the source's own rule. Clear calls are listed elsewhere. The call rests on the fitted dose curve; in most records, active means well fitted inhibition curve with a large enough effect; inconclusive means small, poorly fitted or top-dose-only effect; inactive means no such curve, though single readings can be large or run the other way.
# Assay: Primary qHTS assay for inhibitors of alpha-synuclein gene (SNCA) expression; further: nearly all actives have a fitted effect of over 45% in size
# Conditions: HEK-293 SNCA-luciferase knock-in, luminescence, 24 h
# Text: Assay Submitter (PI): Daniel R. Scoles Ph.D.
# Department of Neurology, University of Utah, Salt Lake City, Utah
# Accumulation of alpha-synuclein is a main underlying pathological feature of Parkinson's disease (PD) and alpha-synucleinopathies, for which lowering expression of the alpha-synuclein gene (SNCA) is a potential therapeutic avenue. Using a cell-based luciferase reporter of SNCA expression we performed a quantitative high throughput screen (qHTS) of 155,885 compounds in dose response. The screening assay was generated using genome editing to insert the luciferase gene downstream and in frame of the SNCA gene in HEK-293 cells (1). A viability counterscreen using GF-AFC was used to eliminate cytotoxic and false positive compounds. […]
# 7; Detector; Fluorescence; Measure fluorescence with ViewLux microplate reader (PerkinElmer) equipped with 405/10 excitation and 540/25 emission filters. […]
# 10; Detector; Luminescence; Measure luminescence with ViewLux microplate reader (PerkinElmer) equipped with clear filters. […]
# 10; Signals were analyzed, and dose-response curves were fit using the Hill equation. […]
# Potency means the concentration at half of the fitted maximal effect.
row,SMILES,Potency
1,CN(C(=O)Cc1ccc(Cl)c(Cl)c1)[C@@H]1CCCC[C@@H]1N1CCCC1,inconclusive: 17.8 µM
